Measured values taken from patent USH1427H, “Substituted flavonoid compounds, their salts, their manufacture and their use in combination with interleukin-2” (priority 1992, dated 1995).

Tests used:
[1] = test system: Renca renal adenocarcinoma; assay: Survival of Renca-bearing mice treated with flavonoid and/or rIL-2; assay type: in vivo, BALB/C mice; conditions: single agent, FIGS. 2a, 2b, 3a and 3b
Description: Tumor model. The model used for these studies is the Renca renal adenocarcinoma, a tumor that originated spontaneously and is maintained by serial transplant in BALB/C mice (JNCI, vol. 50, 1013 (1973)). The growth characteristics of this tumor have been previously described in detail (J. Immunol., vol. 138, 641 (1987)). After injection of 1×10^5 tumor cells under the renal capsule, the solid tumor mass develops rapidly with direct extension to the peritoneal cavity by days 7 to 9 and metastasis to regional lymph nodes and the liver shortly thereafter. Surgical resection of the primary tumor-bearing kidney is potentially curative before day 8 but not thereafter when mice succumb to peritoneal carcinomatosis and subsequent metastatic disease. Flavonoid was administered by injection of 125 mg/kg i.v. and 125 mg/kg i.p., whereas various doses of rIL-2 were delivered by the i.p. route. Routinely, flavonoid was administered 2 to 4 h after nephrectomy of the primary tumor-bearing kidney on day 11, and rIL-2 was administered once per day for 4 successive days beginning on the day after nephrectomy and FAA treatment. […]
FIGS. 2a, 2b, 3a and 3b illustrate the effect of treatment with various flavonoids and/or rIL-2 on the survival of Renca-bearing mice. […] Mice were then monitored for survival and statistical analyses performed by the .chi.^2 test.

tumor = conditions: cited from earlier work; for anti-tumor activity of rIL-2 in mice/rodents: used alone, near toxic dosages
cancer = conditions: certain human cancer patients, b80: near toxic dosages, cited from earlier work
[2] = large amounts of rIL-2, humans; Moertel; cited from earlier work

In the case of “rIL-2: recombinant interleukin-2, most preferably recombinant human interleukin-2”, the “long-term survival, independent use of flavonoid or interleukin-2” value [1] is listed as “unable to induce such long-term survival”, the “anti-tumor activity of rIL-2 in mice/rodents” value (tumor) is listed as “notable anti-tumor activity; also recorded: some anti-tumor effects” and the “anti-tumor activity of rIL-2 in mice/rodents” value (tumor; listed as IL-2) is listed as “induce antitumor effects”. The “therapeutic efficacy of rIL-2 in conjunction with adoptive immunotherapy” value (tumor; with adoptive immunotherapy, Mule et al., Rosenberg et al., Salup et al.) was “enhanced”, the “anti-tumor activity of rIL-2 in humans” value (cancer) was “notable anti-tumor activity; also recorded: some anti-tumor effects” and the “anti-tumor activity of rIL-2 in humans” value (cancer; listed as IL-2) was “induce antitumor effects”. The toxic side effects [2] was “severe and dose-limiting toxic side effects”.

Entries after “also recorded” stand apart in the source; their conditions may differ. Read-outs that look alike come from different tables or passages of the source.
